Data reported in patent publication US6638531B1, “Antimicrobial peptides” (priority 1998, dated 2003).

Tested on: artificial oral biofilm of seven oral aerobic and anaerobic types of bacteria
Test: Antibacterial activity in an artificial oral biofilm
Type: cell-based
Settings: 0.5 h, 100 μg/ml, pH 7
Procedure: An artificial oral biofilm was made by placing hydroxyapatite discs for five days in a continuous culture system of seven oral aerobic and anaerobic types of bacteria (Streptococcus mutans, Streptococcus sanpuis, Streptococcus salivarius, Actinomyces naeslundii, Veillonella parvula, Prevotella intermedia and Fusobacterium nucleatum) The discs with the biofilm formed thereon were subsequently incubated for half an hour with different concentrations of peptide in 10 mM potassium phosphate buffer, pH 7.0. The biofilm was then sonicated from the discs, diluted in PBS and plated out on semi-selective agar plates. The total […] were counted (Streptococci+Actinomyces) on aerobic incubated blood agar plates, the total Gram-negative counts (Veilonella, Fusobacterium and Prevotella) on vancomycin-containing plates and the total counts on the anaerobic incubated blood agar.

With `CC[C@H](C)[C@H](NC(=O)[C@H](CCC(=O)O)NC(=O)[C@H](CCC(=O)O)NC(=O)[C@H](CC(=O)O)NC(=O)[C@H](CO)NC(=O)[C@H](C)NC(=O)[C@H](CC(C)C)NC(=O)[C@@H](N)CC(C)C)C(=O)N[C@@H](CCC(N)=O)C(=O)N[C@@H](CC(=O)O)C(=O)N[C@H](C(=O)N[C@@H](CO)C(=O)NCC(=O)N[C@H](C(=O)N[C@@H](Cc1c[nH]c2ccccc12)C(=O)N[C@@H](Cc1ccc(O)cc1)C(=O)N[C@@H](CC(C)C)C(=O)N[C@@H](CCCCN)C(=O)N[C@@H](C)C(=O)O)[C@@H](C)O)C(C)C` [negative control peptide, LLASDEEIQDVSGTWYLKA, reference compound] the “% reduction in viability counts, total Gram-negative average (s.d.)” value was 41.5 (183.6) %, the “% reduction in viability counts, total aerobic average” value was 96.6% and the “% reduction in viability counts, total anaerobic average” value was −71.7%.
